The text below walks through data of US8044048B2, “Derivatives of sulindac, use thereof and preparation thereof” (Southern Research Institute, priority 2006, dated 2011).

By UniProt entry, the sequences of proteins in these tests, tags left out. Residues count along the entry.
UniProt P23219, 24-599: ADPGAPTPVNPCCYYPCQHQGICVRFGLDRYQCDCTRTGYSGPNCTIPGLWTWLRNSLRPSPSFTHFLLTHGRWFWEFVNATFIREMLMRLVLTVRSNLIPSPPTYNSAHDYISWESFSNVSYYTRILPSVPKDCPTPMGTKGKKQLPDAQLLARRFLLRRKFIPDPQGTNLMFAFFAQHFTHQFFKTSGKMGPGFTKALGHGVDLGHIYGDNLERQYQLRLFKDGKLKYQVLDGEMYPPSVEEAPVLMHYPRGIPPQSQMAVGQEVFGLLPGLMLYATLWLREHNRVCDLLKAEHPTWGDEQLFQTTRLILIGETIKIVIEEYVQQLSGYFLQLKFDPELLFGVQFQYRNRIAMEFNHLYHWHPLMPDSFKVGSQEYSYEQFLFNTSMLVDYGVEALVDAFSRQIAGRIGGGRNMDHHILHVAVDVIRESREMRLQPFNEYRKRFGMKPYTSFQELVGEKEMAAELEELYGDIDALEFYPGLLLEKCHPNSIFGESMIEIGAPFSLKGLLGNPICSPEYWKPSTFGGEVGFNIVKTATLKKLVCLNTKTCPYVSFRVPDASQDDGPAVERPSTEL

A word on the IC50: it is the concentration that inhibits the measured activity by half. The low end stands for greater potency in that assay, the high end for weaker potency in that assay.

Structures are written as SMILES.

The assay concerns the target COX-1 (Homo sapiens, UniProt P23219). Nature of the assay: COX-1 inhibitory activity. It is filed as biochemical.

`CS(=O)(=O)c1ccc(C2=C(c3ccccc3)C(=O)OC2)cc1` [Rofecoxib]: the half-maximal inhibitory concentration (IC50) is above 300 µM.
